Laboratory results published in patent publication US20080051315A1, “Grp Receptor-Related Methods for the Treating and Preventing Fear-Related Disorders” (priority 2003, published 2008).

Sequences of proteins named here, by UniProt entry; tags and fusion partners are left off. A change or cut given only in a name is not applied to a line headed by its entry.
UniProt P21729: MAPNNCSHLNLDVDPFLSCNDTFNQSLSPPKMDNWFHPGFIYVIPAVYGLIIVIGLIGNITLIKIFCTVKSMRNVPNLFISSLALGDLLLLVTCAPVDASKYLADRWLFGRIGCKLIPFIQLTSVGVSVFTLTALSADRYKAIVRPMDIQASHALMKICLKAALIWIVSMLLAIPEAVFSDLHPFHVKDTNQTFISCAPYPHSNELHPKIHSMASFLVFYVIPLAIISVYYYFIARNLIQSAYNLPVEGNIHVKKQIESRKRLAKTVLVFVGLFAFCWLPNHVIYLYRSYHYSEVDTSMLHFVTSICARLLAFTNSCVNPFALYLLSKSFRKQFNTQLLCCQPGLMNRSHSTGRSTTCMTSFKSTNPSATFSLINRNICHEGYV

What was measured:
GRPR [1] = biological target: T1, GRPR (Mus musculus, UniProt P21729); format: cell-based
GRPR [2] = biological target: T1, GRPR; format: cell-based; remark: listed apart in the source

| Substance | LTP of the EPSC relative to baseline EPSC value (GRPR [1]) | effect on pairing-induced LTP (in words) (GRPR [1]) | effect of GRPR antagonist on the GRP-induced increase in frequency of sIPSCs (GRPR [2]) | frequency of sIPSCs after GRPR antagonist added to GRP (GRPR [2]) | effect of GRP on frequency of sIPSCs (in words) (GRPR [2]) | frequency of sIPSCs (GRPR [2]) |
| --- | --- | --- | --- | --- | --- | --- |
| [D-Phe^6,Des-Met^14]-bombesin-(6-14)ethyl amide | 1.92±0.05 | significantly enhanced | blocked the effect of GRP | 5.72±1.1 Hz |  |  |
| gastrin-releasing peptide [GRP] |  |  |  |  | significant increase; also recorded: increased frequency of sIPSCs | 10.12±1.0 Hz and 10.37±1.2 Hz |

Where “and” joins values, the source holds several entries; their conditions need not be identical. Identical values can stand only once. Entries after “also recorded” stand apart in the source; their conditions may differ.
